Data published in patent US7829520B1, “Aqueous based chemical and biological warfare decontaminating system for extreme temperature applications” (dated 2010).

How the values were obtained:
[1] = Decontamination efficiency of 0.3 M PAA against chemical agent GD in mixed sulfonate μEM; settings: 0.1 M GD
[2] = Decontamination efficiency of 0.3 M PAA against chemical agent HD in mixed sulfonate μEM; settings: 0.1 M HD
[3] = mixed sulfonate μEM pH = 10, reaction time 0 min
[4] = mixed sulfonate μEM pH = 10, reaction time 15 min
[5] = mixed sulfonate μEM pH = 10, reaction time 30 min
[6] = mixed sulfonate μEM pH = 10, reaction time 60 min

CC(=O)OO
Percent CA Neutralized [1, 3]: 0.00% | Percent CA Neutralized [1, 4]: 99.99% | Percent CA Neutralized [1, 5]: 99.99% | Percent CA Neutralized [1, 6]: 99.99% | Percent CA Neutralized [2, 3]: 0.00% | Percent CA Neutralized [2, 4]: 98.21% | Percent CA Neutralized [2, 5]: 98.31% | Percent CA Neutralized [2, 6]: 99.15%
